Assay: Spreading of 14C zeta-cypermethrin from the dorsal midline of sheep in test vehicles
Type: in vivo
Settings: back and perirenal fat, day 14
Description: The clipped areas were also swabbed. […] The quantity of zeta-cypermethrin in each sample was measured by liquid scintillation counting.

glyceryl tricaprylate/caprate
Tissue residues of zeta-cypermethrin: highest residue levels

Source: patent US6933318B1, “Topical organic ectoparasiticidal formulations” (Eli Lilly and Company, priority 1999, dated 2005)
